# Permeability data for macrocyclic peptides

Source: CycPeptMPDB (Li et al. 2023), which took these values from Townsend et al. 2020, doi:10.26434/chemrxiv.13335941.v1.

PAMPA is the parallel artificial membrane permeability assay, which has no cells and reads passive diffusion.
Values are log10 P with P in cm/s, so -5 is more permeable than -7.

structure (SMILES),PAMPA (log10 cm/s)
CC(C)C[C@@H]1C(=O)N(C)[C@@H](CC(C)C)C(=O)N2CCC[C@@H]2C(=O)N(Cc2ccccc2)CC(=O)N[C@@H](Cc2ccccc2)C(=O)N2CCC[C@@H]2C(=O)N(C)[C@@H](C)C(=O)N1C,-5.24
CC(C)C[C@H]1NC(=O)[C@@H](C)NC(=O)[C@H](Cc2ccccc2)NC(=O)[C@H](CC(C)C)N(C)C(=O)[C@H]2CCCN2C(=O)[C@@H](CC(C)C)NC1=O,-6.99
CCCN1CC(=O)N(C)[C@H](CC(C)C)C(=O)N[C@@H](CC(C)C)C(=O)N2CCC[C@@H]2C(=O)N(C)[C@H](CC(C)C)C(=O)N[C@@H](Cc2ccccc2)C(=O)N2CCC[C@H]2C1=O,-5.20
CC(C)C[C@@H]1C(=O)N(C)[C@H](CC(C)C)C(=O)N2CCC[C@@H]2C(=O)N[C@H](CC(C)C)C(=O)N[C@@H](Cc2ccccc2)C(=O)N2CCC[C@H]2C(=O)N[C@@H](C)C(=O)N1C,-5.31
CC(C)C[C@H]1C(=O)N(Cc2ccccc2)CC(=O)N2CCC[C@@H]2C(=O)N(C)[C@@H](CC(C)C)C(=O)N[C@@H](Cc2ccccc2)C(=O)N[C@@H](C)C(=O)N1C,-6.20
CCCN1CC(=O)N[C@H](CC(C)C)C(=O)N[C@@H](CC(C)C)C(=O)N2CCC[C@H]2C(=O)N[C@H](CC(C)C)C(=O)N[C@@H](Cc2ccccc2)C1=O,-5.26
CC(C)C[C@H]1NC(=O)[C@H](CC(C)C)N(C)C(=O)[C@H](C)NC(=O)[C@H](Cc2ccccc2)NC(=O)[C@H](CC(C)C)N(C)C(=O)[C@@H]2CCCN2C1=O,-5.25
CC(C)C[C@@H]1NC(=O)[C@@H](C)NC(=O)[C@H](Cc2ccccc2)NC(=O)CN(Cc2ccccc2)C(=O)[C@@H]2CCCN2C(=O)[C@H](CC(C)C)NC1=O,-6.27
CC(C)C[C@@H]1C(=O)N[C@@H](Cc2ccccc2)C(=O)N2CCC[C@H]2C(=O)N(C)[C@H](C)C(=O)N(Cc2ccccc2)CC(=O)N[C@@H](Cc2ccccc2)CC(=O)N2CCC[C@H]2C(=O)N1C,-6.04
CC(C)C[C@H]1C(=O)N[C@@H](Cc2ccccc2)C(=O)N2CCC[C@@H]2C(=O)N(C)[C@@H](C)C(=O)N(C)[C@@H](CC(C)C)C(=O)N(C)[C@@H](CC(C)C)C(=O)N2CCC[C@@H]2C(=O)N1C,-4.95
CCCN1CC(=O)N(C)[C@H](CC(C)C)C(=O)N[C@H](CC(C)C)C(=O)N2CCC[C@H]2C(=O)N[C@H](CC(C)C)C(=O)N[C@@H](Cc2ccccc2)C1=O,-4.89
CC(C)C[C@@H]1NC(=O)[C@H]2CCCN2C(=O)[C@H](CC(C)C)NC(=O)[C@H](CC(C)C)N(C)C(=O)[C@@H](C)NC(=O)[C@H](Cc2ccccc2)NC1=O,-5.99
CC(C)C[C@@H]1NC(=O)[C@@H](C)N(C)C(=O)[C@@H]2CCCN2C(=O)[C@H](Cc2ccccc2)NC(=O)CN(Cc2ccccc2)C(=O)[C@@H]2CCCN2C(=O)[C@@H](CC(C)C)NC1=O,-6.38
CC(C)C[C@@H]1NC(=O)[C@@H](C)N(C)C(=O)[C@H]2CCCN2C(=O)[C@H](Cc2ccccc2)NC(=O)[C@H](CC(C)C)N(C)C(=O)[C@H]2CCCN2C(=O)[C@@H](CC(C)C)N(C)C1=O,-6.17
CC(C)C[C@@H]1NC(=O)[C@H](C)N(C)C(=O)[C@@H]2CCCN2C(=O)[C@H](Cc2ccccc2)NC(=O)[C@@H](CC(C)C)NC(=O)[C@@H]2CCCN2C(=O)CN(Cc2ccccc2)C1=O,-6.04
CC(C)C[C@@H]1NC(=O)[C@@H](C)N(C)C(=O)[C@H](Cc2ccccc2)NC(=O)[C@@H](CC(C)C)N(C)C(=O)[C@@H]2CCCN2C(=O)CN(Cc2ccccc2)C1=O,-5.09

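The data file gives no further conditions (lipid, pH, time, direction or concentration), and values from different papers need not be comparable. The list need not hold all peptides of the study. Peptides that the database sets to -10, its floor, are left out.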